## Cyclic peptide permeability, from CycPeptMPDB

PAMPA is the parallel artificial membrane permeability assay, which has no cells and reads passive diffusion.
P is given in units of 10^-6 cm/s (from log10 values with two decimals); larger means faster passage.

The entry for CC(C)C[C@H]1NC(=O)[C@H]2CCCN2C(=O)[C@H](CC(C)C)N(C)C(=O)[C@H](CC(C)C)N(C)C(=O)[C@@H](C)NC(=O)[C@H](Cc2ccccc2)NC1=O lists PAMPA 1.1 × 10^-6 cm/s.
The entry for CC(C)C[C@@H]1C(=O)N[C@H](CC(C)C)C(=O)N2CCC[C@@H]2C(=O)N(C)[C@@H](CC(C)C)C(=O)N[C@@H](Cc2ccccc2)C(=O)N2CCC[C@H]2C(=O)N[C@@H](Cc2ccccc2)CC(=O)N1C lists PAMPA 3.5 × 10^-6 cm/s.
The entry for CC(C)C[C@H]1NC(=O)[C@@H]2CCCN2C(=O)[C@@H](CC(C)C)NC(=O)CN(Cc2ccccc2)C(=O)[C@@H](C)NC(=O)[C@H](Cc2ccccc2)NC1=O lists PAMPA 0.63 × 10^-6 cm/s.
The entry for CC(C)C[C@@H]1NC(=O)[C@H](CC(C)C)N(C)C(=O)C[C@H](Cc2ccccc2)NC(=O)[C@H]2CCCN2C(=O)[C@H](Cc2ccccc2)NC(=O)[C@@H](CC(C)C)N(C)C(=O)[C@@H]2CCCN2C1=O lists PAMPA 2.3 × 10^-6 cm/s.
The entry for CC(C)C[C@@H]1NC(=O)[C@@H](CC(C)C)NC(=O)C[C@H](Cc2ccccc2)NC(=O)[C@H]2CCCN2C(=O)[C@H](Cc2ccccc2)NC(=O)[C@@H](CC(C)C)N(C)C(=O)[C@@H]2CCCN2C1=O lists PAMPA 4.9 × 10^-6 cm/s.
The entry for CC(C)C[C@@H]1C(=O)N2CCC[C@H]2C(=O)N(C)[C@@H](CC(C)C)C(=O)N[C@@H](Cc2ccccc2)C(=O)N[C@@H](C)C(=O)N(C)[C@@H](CC(C)C)C(=O)N1C lists PAMPA 7.2 × 10^-6 cm/s.
The entry for CC(C)C[C@@H]1C(=O)N2CCC[C@@H]2C(=O)N(Cc2ccccc2)CC(=O)N[C@@H](Cc2ccccc2)C(=O)N[C@H](C)C(=O)N(C)[C@@H](CC(C)C)C(=O)N1C lists PAMPA 2.7 × 10^-6 cm/s.
The entry for CC(C)C[C@@H]1C(=O)N(C)[C@H](CC(C)C)C(=O)N2CCC[C@@H]2C(=O)N(Cc2ccccc2)CC(=O)N[C@@H](Cc2ccccc2)C(=O)N2CCC[C@H]2C(=O)N(C)[C@H](C)C(=O)N1C lists PAMPA 2.5 × 10^-6 cm/s.
The entry for CC(C)C[C@@H]1NC(=O)[C@H]2CCCN2C(=O)CN(Cc2ccccc2)C(=O)[C@H](CC(C)C)NC(=O)C[C@H](Cc2ccccc2)NC(=O)[C@H](Cc2ccccc2)NC1=O lists PAMPA 1.1 × 10^-6 cm/s.
The entry for CC(C)C[C@@H]1NC(=O)[C@@H](CC(C)C)NC(=O)C[C@H](Cc2ccccc2)NC(=O)[C@H]2CCCN2C(=O)[C@H](Cc2ccccc2)NC(=O)[C@H](CC(C)C)N(C)C(=O)[C@H]2CCCN2C1=O lists PAMPA 4.3 × 10^-6 cm/s.
The entry for CC(C)C[C@@H]1NC(=O)[C@@H]2CCCN2C(=O)[C@H](CC(C)C)N(C)C(=O)[C@H](CC(C)C)NC(=O)[C@@H](C)N(C)C(=O)[C@H]2CCCN2C(=O)[C@H](Cc2ccccc2)NC1=O lists PAMPA 4.2 × 10^-6 cm/s.
The entry for CC(C)C[C@@H]1NC(=O)[C@H](C)NC(=O)[C@H](Cc2ccccc2)NC(=O)[C@@H](CC(C)C)NC(=O)[C@H]2CCCN2C(=O)C[C@H](Cc2ccccc2)NC1=O lists PAMPA 3.2 × 10^-6 cm/s.
The entry for CC(C)C[C@@H]1NC(=O)[C@H](CC(C)C)N(C)C(=O)[C@@H](C)NC(=O)[C@H](Cc2ccccc2)NC(=O)[C@@H](CC(C)C)N(C)C(=O)[C@@H]2CCCN2C1=O lists PAMPA 3.2 × 10^-6 cm/s.
The entry for CC(C)C[C@@H]1NC(=O)CN(Cc2ccccc2)C(=O)C[C@H](Cc2ccccc2)NC(=O)[C@@H]2CCCN2C(=O)[C@H](Cc2ccccc2)NC(=O)[C@H](CC(C)C)N(C)C(=O)[C@@H]2CCCN2C1=O lists PAMPA 1.2 × 10^-6 cm/s.

2 of these entries, quoted again:

SMILES	PAMPA (10^-6 cm/s)
CC(C)C[C@@H]1NC(=O)[C@@H](CC(C)C)NC(=O)C[C@H](Cc2ccccc2)NC(=O)[C@H]2CCCN2C(=O)[C@H](Cc2ccccc2)NC(=O)[C@@H](CC(C)C)N(C)C(=O)[C@@H]2CCCN2C1=O	4.9
CC(C)C[C@H]1NC(=O)[C@@H]2CCCN2C(=O)[C@@H](CC(C)C)NC(=O)CN(Cc2ccccc2)C(=O)[C@@H](C)NC(=O)[C@H](Cc2ccccc2)NC1=O	0.63

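Lipid, pH, incubation time, direction and concentration are not recorded in the data file. Other peptides of the study may be missing here. Entries at the database's floor value (log10 P of -10) are not listed.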

Data: CycPeptMPDB; original report Townsend et al. 2020, doi:10.26434/chemrxiv.13335941.v1.